We go through 1 molecule from article PMC8883701 (2022).

The chains behind the UniProt entries cited, without tags or fusion partners.
UniProt P27694, whole entry, chain 1 of 3: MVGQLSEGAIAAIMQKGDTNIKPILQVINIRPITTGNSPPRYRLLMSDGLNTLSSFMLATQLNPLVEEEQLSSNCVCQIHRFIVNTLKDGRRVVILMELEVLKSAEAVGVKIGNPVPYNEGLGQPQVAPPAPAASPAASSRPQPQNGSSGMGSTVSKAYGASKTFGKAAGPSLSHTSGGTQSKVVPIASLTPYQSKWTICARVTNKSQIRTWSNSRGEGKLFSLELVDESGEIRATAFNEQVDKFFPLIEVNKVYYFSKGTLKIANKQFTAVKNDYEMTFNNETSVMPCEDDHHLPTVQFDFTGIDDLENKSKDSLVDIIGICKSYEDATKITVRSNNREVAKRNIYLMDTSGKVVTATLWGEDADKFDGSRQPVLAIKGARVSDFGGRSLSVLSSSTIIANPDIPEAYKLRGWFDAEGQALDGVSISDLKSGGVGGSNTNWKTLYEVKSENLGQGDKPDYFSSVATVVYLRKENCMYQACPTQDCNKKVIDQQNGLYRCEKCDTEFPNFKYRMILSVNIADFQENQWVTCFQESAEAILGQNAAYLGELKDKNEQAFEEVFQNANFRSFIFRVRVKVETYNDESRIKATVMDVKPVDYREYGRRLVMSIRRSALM
recombinant RPA (RPA1, RPA2 and RPA3 co-purified), UniProt P15927, whole entry, chain 2 of 3: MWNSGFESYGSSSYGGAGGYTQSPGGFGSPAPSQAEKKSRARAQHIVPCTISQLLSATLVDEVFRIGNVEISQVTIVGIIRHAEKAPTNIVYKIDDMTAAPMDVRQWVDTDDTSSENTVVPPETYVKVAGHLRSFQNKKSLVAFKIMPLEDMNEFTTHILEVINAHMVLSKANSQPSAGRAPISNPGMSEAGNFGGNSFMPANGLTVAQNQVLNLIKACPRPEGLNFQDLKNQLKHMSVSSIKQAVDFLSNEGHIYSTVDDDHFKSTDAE
recombinant RPA (RPA1, RPA2 and RPA3 co-purified), UniProt P35244, whole entry, chain 3 of 3: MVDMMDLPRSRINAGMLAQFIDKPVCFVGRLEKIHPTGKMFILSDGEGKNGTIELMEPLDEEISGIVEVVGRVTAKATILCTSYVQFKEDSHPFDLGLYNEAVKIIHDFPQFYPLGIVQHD

The test has as its target recombinant RPA (RPA1, RPA2 and RPA3 co-purified) (UniProt P27694 1-616; P15927 1-270; P35244 1-121). Nature of the test: BLI.

B1: His-tagged LAP2α (LAP2α/wt) (natural protein)
chain: MPEFLEDPSVLTKDKLKSELVANNVTLPAGEQRKDVYVQLYLQHLTARNRPPLPAGTNSKGPPDFSSDEEREPTPVLGSGAAAAGRSRAAVGRKATKKTDKPRQEDKDDLDVTELTNEDLLDQLVKYGVNPGPIVGTTRKLYEKKLLKLREQGTESRSSTPLPTISSSAENTRQNGSNDSDRYSDNEEGKKKEHKKVKSTRDIVPFSELGTTPSGGGFFQGISFPEISTRPPLGSTELQAAKKVHTSKGDLPREPLVATNLPGRGQLQKLASERNLFISCKSSHDRCLEKSSSSSSQPEHSAMLVSTAASPSLIKETTTGYYKDIVENICGREKSGIQPLCPERSHISDQSPLSSKRKALEESESSQLISPPLAQAIRDYVNSLLVQGGVGSLPGTSNSMPPLDVENIQKRIDQSKFQETEFLSPPRKVPRLSEKSVEERDSGSFVAFQNIPGSELMSSFAKTVVSHSLTTLGLEVAKQSQHDKIDASELSFPFHESILKVIEEEWQQVDRQLPSLACKYPVSSREATQILSVPKVDDEILGFISEATPLGGIQAASTESCNQQLDLALCRAYEAAASALQIATHTAFVAKAMQADISQAAQILSSDPSRTHQALGILSKTYDAASYICEAAFDEVKMAAHTMGNATVGRRYLWLKDCKINLASKNKLASTPFKGGTLFGGEVCKVIKKRGNKH
The term koff denotes the rate constant with which the complex falls apart. With B1, the koff came out at 0.000519 s⁻¹.
